{"source": "paper PMC11272584", "about": "(Nature Metabolism, 2024)", "key": {"GIPR R190Q": {"biological_target": "T1, GIPR R190Q (Homo sapiens, UniProt P48546, R190Q)", "T1 sequence (P48546 22-466 R190Q)": "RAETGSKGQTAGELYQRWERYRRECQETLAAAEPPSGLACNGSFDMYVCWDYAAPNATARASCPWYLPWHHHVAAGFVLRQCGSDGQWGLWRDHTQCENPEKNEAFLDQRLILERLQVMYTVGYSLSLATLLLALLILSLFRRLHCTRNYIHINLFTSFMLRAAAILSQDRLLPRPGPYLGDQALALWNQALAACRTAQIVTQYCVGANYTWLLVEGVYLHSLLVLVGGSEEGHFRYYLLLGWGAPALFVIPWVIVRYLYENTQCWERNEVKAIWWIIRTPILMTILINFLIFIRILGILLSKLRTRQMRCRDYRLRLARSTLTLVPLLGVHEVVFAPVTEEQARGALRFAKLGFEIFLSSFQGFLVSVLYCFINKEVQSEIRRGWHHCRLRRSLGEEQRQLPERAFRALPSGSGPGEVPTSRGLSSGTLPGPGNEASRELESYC", "test": "cAMP accumulation", "format": "cell-based", "parameters": "host or cells: HEK293"}, "GIPR R164Q": {"biological_target": "T2, GIPR R164Q (Homo sapiens, UniProt P48546, R164Q)", "T2 sequence (P48546 22-466 R164Q)": "T1 sequence (P48546 22-466 R190Q) with R143Q, Q169R", "settings": "HEK293A, 1 µM GIP minus vehicle, n = 4, P = 0.0591"}}, "note": "Changes are numbered by the printed parent chain."}
{"substance": "glucose-dependent insulinotropic polypeptide [GIP]", "values": [{"measurement": "cAMP (Emax)", "setting": "GIPR R190Q; HEK293, GIP(1–42) 1 pM–100 nM, 30 min 37 °C, mean of n = 7", "result": "72 % of WT GIPR activity"}, {"measurement": "logEC50 (cAMP)", "setting": "GIPR R190Q; HEK293, Hill slope 1.0, mean of n = 7", "result": -8.1}, {"measurement": "Mean of ΔBRET", "setting": "GIPR R164Q", "result": 0.0142}]}
